The structures appear in SMILES notation.

Protein sequences, listed by entry. Tags and fused reporters are not part of them. Residues count along the entry.
UniProt Q08499, 303-809 limits assumed: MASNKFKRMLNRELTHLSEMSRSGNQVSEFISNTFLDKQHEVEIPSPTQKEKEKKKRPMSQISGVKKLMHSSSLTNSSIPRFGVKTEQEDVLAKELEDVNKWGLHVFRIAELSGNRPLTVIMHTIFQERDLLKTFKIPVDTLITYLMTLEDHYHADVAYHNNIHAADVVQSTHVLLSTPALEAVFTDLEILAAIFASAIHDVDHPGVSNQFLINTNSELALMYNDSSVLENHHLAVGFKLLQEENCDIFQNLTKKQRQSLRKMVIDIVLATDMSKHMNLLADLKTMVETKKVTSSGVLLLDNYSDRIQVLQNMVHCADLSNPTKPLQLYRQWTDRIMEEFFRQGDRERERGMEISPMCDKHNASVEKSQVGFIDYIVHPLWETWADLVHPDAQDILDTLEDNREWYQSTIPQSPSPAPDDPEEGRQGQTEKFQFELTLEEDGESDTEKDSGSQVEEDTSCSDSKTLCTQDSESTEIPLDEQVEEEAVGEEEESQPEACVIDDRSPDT
UniProt Q07343, 1-564 isoform 2: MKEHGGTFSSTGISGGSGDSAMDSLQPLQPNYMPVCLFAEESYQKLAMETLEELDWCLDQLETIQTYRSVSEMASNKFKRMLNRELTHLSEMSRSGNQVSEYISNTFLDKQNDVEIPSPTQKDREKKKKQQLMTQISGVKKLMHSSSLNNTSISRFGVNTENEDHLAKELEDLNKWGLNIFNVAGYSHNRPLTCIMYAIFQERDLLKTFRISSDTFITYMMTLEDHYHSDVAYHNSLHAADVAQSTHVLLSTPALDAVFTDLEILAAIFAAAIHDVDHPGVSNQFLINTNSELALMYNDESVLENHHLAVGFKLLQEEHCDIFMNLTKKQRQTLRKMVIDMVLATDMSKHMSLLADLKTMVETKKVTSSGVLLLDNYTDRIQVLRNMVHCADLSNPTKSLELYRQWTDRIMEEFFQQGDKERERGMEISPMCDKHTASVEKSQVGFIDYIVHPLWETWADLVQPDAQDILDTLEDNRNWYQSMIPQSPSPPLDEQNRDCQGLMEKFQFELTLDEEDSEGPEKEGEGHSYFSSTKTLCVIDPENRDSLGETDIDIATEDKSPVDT
UniProt Q07343, whole entry: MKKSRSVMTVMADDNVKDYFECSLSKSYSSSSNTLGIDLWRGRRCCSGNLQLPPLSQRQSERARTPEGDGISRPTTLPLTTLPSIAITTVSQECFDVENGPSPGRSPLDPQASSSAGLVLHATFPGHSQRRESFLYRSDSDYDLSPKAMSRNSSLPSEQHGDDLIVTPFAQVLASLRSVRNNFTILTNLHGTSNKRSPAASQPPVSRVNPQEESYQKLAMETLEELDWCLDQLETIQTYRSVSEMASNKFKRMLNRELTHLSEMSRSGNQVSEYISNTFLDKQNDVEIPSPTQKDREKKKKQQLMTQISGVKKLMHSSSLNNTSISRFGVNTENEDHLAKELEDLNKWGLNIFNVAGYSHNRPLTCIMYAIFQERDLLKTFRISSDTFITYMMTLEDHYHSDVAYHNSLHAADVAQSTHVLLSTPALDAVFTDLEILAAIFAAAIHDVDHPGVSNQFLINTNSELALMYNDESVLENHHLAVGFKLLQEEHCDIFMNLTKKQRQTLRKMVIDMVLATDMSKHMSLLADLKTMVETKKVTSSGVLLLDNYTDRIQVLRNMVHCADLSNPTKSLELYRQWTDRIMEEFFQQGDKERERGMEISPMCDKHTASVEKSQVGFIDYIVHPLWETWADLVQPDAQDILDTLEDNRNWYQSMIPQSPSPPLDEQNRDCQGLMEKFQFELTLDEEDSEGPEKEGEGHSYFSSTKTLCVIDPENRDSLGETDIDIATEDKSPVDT
UniProt Q12809, whole entry: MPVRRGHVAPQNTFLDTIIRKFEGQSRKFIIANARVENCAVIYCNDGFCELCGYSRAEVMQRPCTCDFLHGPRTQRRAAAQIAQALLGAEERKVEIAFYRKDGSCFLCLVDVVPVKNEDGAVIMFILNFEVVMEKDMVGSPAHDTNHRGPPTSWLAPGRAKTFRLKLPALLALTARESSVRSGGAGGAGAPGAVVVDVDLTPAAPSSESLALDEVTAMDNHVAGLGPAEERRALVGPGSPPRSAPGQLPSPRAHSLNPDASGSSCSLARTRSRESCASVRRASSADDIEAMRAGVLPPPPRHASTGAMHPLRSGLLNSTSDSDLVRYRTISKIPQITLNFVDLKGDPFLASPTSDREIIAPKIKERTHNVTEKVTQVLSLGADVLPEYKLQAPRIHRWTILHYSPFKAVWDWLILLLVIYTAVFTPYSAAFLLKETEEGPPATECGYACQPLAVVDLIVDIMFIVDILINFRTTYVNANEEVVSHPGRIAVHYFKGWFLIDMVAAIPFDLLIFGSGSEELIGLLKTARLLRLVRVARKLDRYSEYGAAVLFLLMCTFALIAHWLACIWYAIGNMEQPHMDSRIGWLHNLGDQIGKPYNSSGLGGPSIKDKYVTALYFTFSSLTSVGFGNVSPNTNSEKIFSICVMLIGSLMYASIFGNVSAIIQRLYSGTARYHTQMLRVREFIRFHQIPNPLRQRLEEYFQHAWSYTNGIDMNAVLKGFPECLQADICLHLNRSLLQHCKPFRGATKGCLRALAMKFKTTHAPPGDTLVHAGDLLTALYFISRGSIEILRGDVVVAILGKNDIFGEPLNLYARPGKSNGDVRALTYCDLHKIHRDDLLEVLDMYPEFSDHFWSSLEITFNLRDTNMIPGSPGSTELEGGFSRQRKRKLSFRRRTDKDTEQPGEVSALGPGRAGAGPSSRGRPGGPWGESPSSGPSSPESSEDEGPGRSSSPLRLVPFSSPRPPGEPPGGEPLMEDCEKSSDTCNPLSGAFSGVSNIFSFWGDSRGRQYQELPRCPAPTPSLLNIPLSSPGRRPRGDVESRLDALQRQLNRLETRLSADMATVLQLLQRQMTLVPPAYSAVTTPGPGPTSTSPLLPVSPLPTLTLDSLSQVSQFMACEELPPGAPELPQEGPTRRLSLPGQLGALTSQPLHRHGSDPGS

We go through three compounds from patent US20250326765A1, “PDE4B INHIBITOR AND USE THEREOF” (XIZANG HAISCO PHARMACEUTICAL CO., LTD., priority 2022, published 2025).

Series [1] deals with PDE4D2 (Homo sapiens, UniProt Q08499). Briefly: Effect of compounds on PDE4D2 activity (fluorescence polarization kit). The following applies: read-out: PDE4D2 IC50; class symbols. The protocol: The effect of compounds on PDE4D2 activity was detected by a fluorescence polarization kit (BPS Bioscience, Catalog #60345). During the reaction, 12.5 μL of 0.272 ng/well of an enzyme (final concentration: 0.068 ng/well) and 12.5 μL of the compound diluted in a gradient manner (DMSO concentration: 4%) were first pre-incubated at room temperature for 15 minutes, the same volume of the enzyme at the same concentration and 12.5 μL of PDE buffer containing 4% DMSO were added to the positive control well, and 25 μL of PDE buffer containing 2% DMSO was added to the negative control well. After completion, 25 μL of […] FAM-Cyclic-3′,5′-AMP (final concentration: […]) was added to each well, fully mixed, and then incubated at room temperature with slow shaking for 30 minutes. The Binding Agent was diluted with the Binding Agent Diluent (cAMP) at a ratio of 1:100 for later use, 100 μl/well of the Binding Agent dilution was taken and added to all wells of the test plate and incubated at room temperature with slow shaking for 1 hour.
After the incubation was complete, BMG LRBTECH microplate reader was used for FP detection, with Excitation at 485 nm and Emission at 520 nm. FP was usually represented by mP value.
[formula] • I∥ (S520): fluorescence intensity in parallel direction • I⊥ (P520): fluorescence intensity in perpendicular direction • G: G factor=1
(§1) [formula] • mP(sample): mP of the test compound in a reaction well • mP(negative control): mP in the negative control well • mP(positive control): mP in the positive control well
(§2) According to the calculated inhibition rate at each concentration, the IC50 value of each compound was calculated by GraphPad Prism 8 software.

For series [2], the target named is PDE4B2 (Homo sapiens, UniProt Q07343). Description: Effect of compounds on PDE4B2 activity (fluorescence polarization kit). As to conditions: read-out: PDE4B2 IC50; class symbols. The protocol:
The effect of compounds on PDE4B2 activity was detected by a fluorescence polarization kit (BPS Bioscience, Catalog #60343). According to the instructions of the kit, FAM-Cyclic-3′,5′-AMP at a final concentration of […], 1 ng/well of PDE4B2 (PDE buffer was added to the negative control well), and a compound diluted in a gradient manner (PDE buffer containing 10% DMSO was added to the positive control well) were added to each well, fully mixed, and then reacted at room temperature for 1 h. The Binding Agent was diluted with the Binding Agent Diluent (cAMP) at a ratio of 1:100 for later use, the Binding Agent dilution was taken and added to the test plate at 50 μl/well and incubated at room temperature with slow shaking for 20 minutes. After the incubation was complete, Envision was used for FP detection, with Excitation at 480 nm and Emission at 535 nm. FP was usually represented by mP value.
[formula] • I∥ (S535): fluorescence intensity in parallel direction • I⊥ (P535): fluorescence intensity in perpendicular direction • G: G factor=1
as §1, §2
For orientation: Polarisation of emitted light reports the rotation of a fluorescent probe.

Series [3] addresses hERG potassium ion channel (Homo sapiens, UniProt Q12809). Briefly: Test for hERG potassium ion channel (manual patch-clamp, CHO cells). The following applies: read-out: IC50, inhibition of hERG potassium channel current; CHO cells stably expressing hERG, whole cell patch-clamp. The text has this: Experimental Platform: Electrophysiological Manual Patch-Clamp System
Cell line: Chinese hamster ovary (CHO) cell line stably expressing hERG potassium ion channel
Experimental method: CHO (Chinese Hamster Ovary) cells stably expressing hERG potassium channel were subjected to a whole cell patch-clamp technique to record the hERG potassium channel current at room temperature. The glass microelectrode was made of a glass electrode blank (BF150-86-10, Sutter) by a puller. The tip resistance after filling the liquid in the electrode was about 2-5 MQ. The glass microelectrode can be connected to the patch-clamp amplifier by inserting the glass microelectrode into an amplifier probe. The clamping voltage and data recording were controlled and recorded by the pClamp 10 software through a computer. The sampling frequency was 10 kHz, and the filtering frequency was 2 kHz. […]
Data processing: Data analysis processing was carried out by using pClamp 10, GraphPad Prism 5, and Excel software. The degree of inhibition on the hERG potassium current (peak value of hERG tail current induced at −50 mV) at different compound concentrations was calculated by the following formula: […]
Compound IC50 was calculated using GraphPad Prism 5 software by fitting according to the following equation: […]
(hERG is a cardiac potassium channel; its block is linked to QT prolongation.)

A short description of series [4]: Pharmacokinetic test in mice. The following applies: for AUC0-t / T1/2 / CL / Vdss: plasma. The protocol:
5.1 Experimental animals: Male ICR mice, 20-25 g, 6 mice/compound. Purchased from Chengdu Ddossy Experimental Animals Co., Ltd.
5.2 Experimental design: On the day of the experiment, 42 ICR mice were randomly grouped according to their body weights. The animals were fasted with water available for 12-14 h one day before administration and fed 4 h after administration.
Before and after administration, 0.06 mL of blood was taken from the orbit under isoflurane anesthesia and placed in an EDTAK2 centrifuge tube for centrifugation at 5000 rpm at 4-C for 10 min, followed by plasma collection. The blood collection time points for the intravenous group and intragastric group were both 0 m, 5 mi, 15 mi, 30 mi, 1 h, 2 h, 4 h, 6 h, 8 h, and 24 h. Before analysis and detection, all the samples were stored at −80° C., and the samples were subjected to quantitative analysis using LC-MS/MS.

The subject of series [5] is release of tumor necrosis factor-α (TNF-α) from human peripheral blood mononuclear cells induced by lipopolysaccharide (LPS). Description: Inhibition of LPS-induced TNF-α release from human peripheral blood mononuclear cells in vitro. As to conditions: hPBMC, 100 ng/mL LPS, 4 h; for IC50: read-out: Re IC50 (nM) (relative IC50), TNF-α induced by LPS, class symbols. How it is done:
Normal human peripheral blood which was anticoagulated (citric acid anticoagulation) was collected, and hPBMCs were prepared by Ficoll-Paque PLUS (Cytiva, Cat #17144002, density 1.077 g/mL). The concentration of hPBMC cells was adjusted to 0.25×10^6 cells/mL with RPMI1640 medium and inoculated into a 96-well plate in an amount of 50000 cells per well. Subsequently, different concentrations of drugs were added for pre-incubation for 1 h (the DMSO final concentration was 0.1%, and the positive and negative control wells had the same volume of RPMI1640 containing 0.1% DMSO). After the pre-incubation was complete, 100 ng/mL LPS (SIGMA, L2630) was added to the compound and positive control wells, and the negative control well had the same volume of RPMI1640 containing 0.1% DMSO. Incubation was carried out for 4 h in an incubator at 37° C. and 5% CO2. The cell supernatant was collected, and the content of TNF-α in the supernatant sample was detected by human TNF-α Elisa quantitative test kit (Sino Biological, Cat #KIT10602). The IC50 value was calculated using GraphPad Prism software.

Series [6] in a line: Pharmacokinetic test in beagle dogs. The protocol: 6.1 Experimental animals: male beagle dogs, about 8-11 kg, 6 beagle dogs/compound, purchased from Beijing Marshall Biotechnology Co., Ltd.
6.2 Experimental method: On the day of the experiment, 18 beagle dogs were randomly grouped according to their body weights. The animals were fasted with water available for 12-14 h one day before administration and fed 4 h after administration. Administration was carried out according to Table 8.
Before and after administration, 1 ml of blood was taken from the jugular vein or limb vein and placed in an EDTAK2 centrifuge tube. Centrifugation was carried out at 5000 rpm at 4° C. for 10 min, and plasma was collected. The blood collection time points for the intravenous group and intragastric group were both 0 min, 5 min, 15 min, 30 min, 1 h, 2 h, 4 h, 6 h, 8 h, 10 h, 12 h, 24 h, 48 h, and 72 h. Before analysis and detection, all the samples were stored at −80° C., and the samples were subjected to quantitative analysis using LC-MS/MS.

A short description of series [7]: Pharmacokinetic test in monkeys. How it is done:
Experimental animals: Male cynomolgus monkeys, 3-5 kg, 3-6 years old, 6 monkeys/compound. Purchased from Suzhou Xishan Biotechnology Inc.
Experimental method: On the day of the experiment, 12 monkeys were randomly grouped according to their body weights. The animals were fasted with water available for 14-18 h one day before administration and fed 4 h after administration.
Before and after administration, 1.0 mL of blood sample was taken from the limb vein and placed in an EDTAK2 centrifuge tube. Centrifugation was carried out at 5000 rpm at 4° C. for 10 min, and plasma was collected. The blood collection time points for the intravenous group were 0 min, 5 min, 15 min, 30 min, 1 h, 2 h, 4 h, 6 h, 8 h, 10 h, 12 h, and 24 h. Before analysis and detection, all the samples were stored at −80° C., and the samples were subjected to quantitative analysis using LC-MS/MS.

For series [8], the target named is PDE4B1 (Homo sapiens, UniProt Q07343). Briefly: Effect of compounds on PDE4B1 activity (IMAP fluorescence polarization kit). The following applies: read-out: PDE4B1 IC50; class symbols.

Consider `CC#Cc1cnc2c(c1)OCC1CN(c3nc4c(c(NC5(CO)CCC5)n3)[S@+]([O-])CC4)CCN21` (single isomer, unassigned) [Compound 80-1], for which the IC50 – broadly, the concentration that inhibits the measured activity by half – in series [1] was 10 to 50 nM. Also, the IC50 in series [2] is less than 10 nM. Besides, in series [3], the IC50 came to 18.7 µM. In series [4] (i.g. (10 mg/kg)), this compound displayed an F not below 98%, an AUC0-t of 35989 ± 3265 ng·h/mL and a T1/2 of 2.67 ± 0.62 h. Further, in series [4] (i.v. (5 mg/kg)), the AUC0-t came to 6156 ± 249 ng·h/mL; the CL is 6.34 ± 0.27 mL/min/kg; the T1/2 is 1.78 ± 0.17 h; the Vdss (in general, the apparent volume that relates the amount in the body to the concentration in plasma or blood) is on record as 0.968 ± 0.076 L/kg. Also, in series [5], the “Max inhibition (%)” value is given as 70.26% and the IC50 is less than 10 nM.

For `C#Cc1cnc2c(c1)OCC1CN(c3nc4c(c(NC5(CO)CCC5)n3)[S@+]([O-])CC4)CCN21` (single isomer, unassigned) [Compound 67-1], the IC50 was 10 to 50 nM in series [1], less than 10 nM in series [2] and 10 to 50 nM in series [5]. In addition, the F is 58.7 ± 13% in series [6] (i.g. (5 mg/kg)), not below 98% in series [4] (i.g. (10 mg/kg)) and 34.9 ± 5.3% in series [7] (i.g. (5 mg/kg)). Besides, the AUC0-t in series [6] (plasma, i.g. (5 mg/kg)) worked out at 9080 ± 1987 ng·h/mL; in series [6] (plasma, i.v. (1 mg/kg)), 5154 ± 436 ng·h/mL; in series [4] (i.g. (10 mg/kg)), 41862 ± 676 ng·h/mL; in series [4] (i.v. (5 mg/kg)), 4552 ± 393 ng·h/mL; in series [7] (plasma, i.g. (5 mg/kg)) it was 7662 ± 1168 ng·h/mL; in series [7] (plasma, i.v. (1 mg/kg)), 4391 ± 592 ng·h/mL. In addition, the T1/2 in series [6] (plasma, i.g. (5 mg/kg)) was 6.39 ± 0.54 h; in series [6] (plasma, i.v. (1 mg/kg)), 6.20 ± 0.35 h; in series [4] (i.g. (10 mg/kg)), 2.66 ± 0.14 h; in series [4] (i.v. (5 mg/kg)) it was 1.27 ± 0.053 h. The CL is listed as 3.24 ± 0.27 mL/min/kg in series [6] (plasma, i.v. (1 mg/kg)); 9.04 ± 0.75 mL/min/kg in series [4] (i.v. (5 mg/kg)); 5.70 ± 0.63 mL/min/kg in series [7] (plasma, i.v. (1 mg/kg)). For the same compound, the volume of distribution (Vdss) came out at 1.09 ± 0.091 L/kg in series [6] (plasma, i.v. (1 mg/kg)); 0.986 ± 0.076 L/kg in series [4] (i.v. (5 mg/kg)); 1.06 ± 0.024 L/kg in series [7] (plasma, i.v. (1 mg/kg)).

As for `[O-][S@+]1CCc2nc(N3CC4C=C(c5ccc(Cl)cc5)CC4C3)nc(NC3(CO)CCC3)c21` (single isomer, unassigned), the IC50 in series [1] is less than 10 nM; in series [3] it was more than 20 µM; in series [8] it was less than 10 nM.
